Assay results as given in ChEMBL document CHEMBL1125222, “Activity of N6-substituted 2-chloroadenosines at A1 and A2 adenosine receptors” (J Med Chem, 1991).
pKi: −log10 of the molar value.

Amino acid sequences for entries named in this document (tags omitted).
UniProt P30543, whole entry: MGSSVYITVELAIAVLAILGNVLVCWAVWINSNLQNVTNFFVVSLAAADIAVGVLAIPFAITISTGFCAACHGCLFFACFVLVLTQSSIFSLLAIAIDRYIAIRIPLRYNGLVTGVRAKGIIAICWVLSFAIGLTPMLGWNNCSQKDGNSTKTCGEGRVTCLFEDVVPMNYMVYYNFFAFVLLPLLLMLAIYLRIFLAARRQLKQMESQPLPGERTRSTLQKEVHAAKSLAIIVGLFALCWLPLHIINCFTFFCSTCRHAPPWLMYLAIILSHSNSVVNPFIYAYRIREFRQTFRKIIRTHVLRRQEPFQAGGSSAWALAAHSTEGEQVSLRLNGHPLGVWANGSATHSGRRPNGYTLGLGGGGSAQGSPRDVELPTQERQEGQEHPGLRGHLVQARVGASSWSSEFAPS

Molecular target: Adenosine receptor A2a (Rattus norvegicus, UniProt P30543)
Test: Inhibition of [3H]- NECA binding to adenosine receptor A2A

- pKi: 7.12
SMILES: Nc1nc(Cl)nc2c1ncn2[C@@H]1O[C@H](CO)[C@@H](O)[C@H]1O
